# Values quoted from earlier work, collected in patent publication US20060074108A1, “Matrix metalloprotease (MMP) inhibitors and their application in cosmetic and pharmaceutical composition” (Bioderm Research, priority 2004, published 2006).
# Protein sequences, listed by entry. Tags and fused reporters are not part of them. Residues count along the entry.
# UniProt P14780, 94-707, species assumed: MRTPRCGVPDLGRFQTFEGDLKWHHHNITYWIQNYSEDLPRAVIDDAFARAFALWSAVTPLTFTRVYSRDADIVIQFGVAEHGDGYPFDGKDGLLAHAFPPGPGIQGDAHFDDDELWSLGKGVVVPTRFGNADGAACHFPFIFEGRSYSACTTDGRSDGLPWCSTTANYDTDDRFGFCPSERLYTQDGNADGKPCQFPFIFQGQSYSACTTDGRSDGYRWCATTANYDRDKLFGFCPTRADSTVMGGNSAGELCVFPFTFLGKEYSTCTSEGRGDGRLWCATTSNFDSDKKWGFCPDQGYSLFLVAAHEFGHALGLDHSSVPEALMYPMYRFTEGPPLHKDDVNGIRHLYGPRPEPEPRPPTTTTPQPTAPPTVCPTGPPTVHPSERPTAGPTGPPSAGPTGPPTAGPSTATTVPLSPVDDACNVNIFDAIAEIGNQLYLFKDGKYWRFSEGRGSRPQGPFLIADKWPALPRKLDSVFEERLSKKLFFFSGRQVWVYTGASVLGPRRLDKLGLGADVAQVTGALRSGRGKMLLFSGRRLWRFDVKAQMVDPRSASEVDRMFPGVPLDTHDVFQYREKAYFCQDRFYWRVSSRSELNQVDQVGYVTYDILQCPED
# Target: MMP-9 (Homo sapiens, UniProt P14780)
# Conditions: MMP-13-selective compound; cited from earlier work
compound,measurement,value
Cc1cc(C)c(N(Cc2ccccc2)S(=O)(=O)c2ccc(OCCNC(=O)c3cc4ccccc4o3)cc2)c(C(=O)NO)c1 [WAY-170523],selectivity against MMP-9,56 fold
